Earlier results as cited in PMC4479448, “Delivery of Topically Applied Calpain Inhibitory Peptide to the Posterior Segment of the Rat Eye” (PLoS ONE, 2015).

Conditions: topically applied; cited from earlier work

insulin
time of peak level in the optic nerve after instillation: 20 min | time of peak level in the retina after instillation: 1 h
